These are literature values, as cited in publication PMC8484413 (Dermatology and Therapy, 2021).

For this data set, the system named is patients with moderate-to-severe plaque psoriasis. Particulars: phase 2, plaque psoriasis; placebo 4%; cited from earlier work.

With Deucravacitinib, the “Rate of treatment discontinuation due to adverse events” value is recorded as 2–7%.
